A short description of the data set: Saturation solubilities of fentanyl in solubility-decreasing additives.

The results in this text go back to patent publication US10583093B2.

Some compounds may have been tested in ways that are not shown here.

Take `CCC(=O)N(c1ccccc1)C1CCN(CCc2ccccc2)CC1`: the Saturation solubility reads like this: (in Diglycerol) under 1.5 % by weight; (in Dioctylcyclohexane) under 1.9 % by weight; (in Glycerol) under 1.5 % by weight; (in Paraffin, liquid) under 1.5 % by weight; (in Polyethylene glycol 400) 7.5 % by weight.
